Values of other authors in patent US20210290606A1, “METHOD TO PREVENT AND TREAT OSTEOARTHRITIS BY CALCIUM CHANNEL BLOCKERS, ANGIOTENSIN CONVERTING ENZYME INHIBITORS, AND ANGIOTENSIN RECEPTOR BLOCKERS” (priority 2018, published 2021).

Tested on: osteoarthritis
Settings: 2016 meta-analysis of 22 clinical trials, 8275 patients, after one year; cited from earlier work

## CN1CC[C@]23c4c5ccc(O)c4O[C@H]2C(=O)CC[C@H]3[C@H]1C5 [hydromorphone]
  clinical difference between the high potency narcotics and tramadol: no clinically observable difference
